Results: patent US9493435B2, “IRE-1α inhibitors” (MannKing Corporation, priority 2009, dated 2016)

Chains of the proteins cited; added tags and fusions are not shown. Residues count along the entry.
UniProt O75460, 19-977 limits assumed: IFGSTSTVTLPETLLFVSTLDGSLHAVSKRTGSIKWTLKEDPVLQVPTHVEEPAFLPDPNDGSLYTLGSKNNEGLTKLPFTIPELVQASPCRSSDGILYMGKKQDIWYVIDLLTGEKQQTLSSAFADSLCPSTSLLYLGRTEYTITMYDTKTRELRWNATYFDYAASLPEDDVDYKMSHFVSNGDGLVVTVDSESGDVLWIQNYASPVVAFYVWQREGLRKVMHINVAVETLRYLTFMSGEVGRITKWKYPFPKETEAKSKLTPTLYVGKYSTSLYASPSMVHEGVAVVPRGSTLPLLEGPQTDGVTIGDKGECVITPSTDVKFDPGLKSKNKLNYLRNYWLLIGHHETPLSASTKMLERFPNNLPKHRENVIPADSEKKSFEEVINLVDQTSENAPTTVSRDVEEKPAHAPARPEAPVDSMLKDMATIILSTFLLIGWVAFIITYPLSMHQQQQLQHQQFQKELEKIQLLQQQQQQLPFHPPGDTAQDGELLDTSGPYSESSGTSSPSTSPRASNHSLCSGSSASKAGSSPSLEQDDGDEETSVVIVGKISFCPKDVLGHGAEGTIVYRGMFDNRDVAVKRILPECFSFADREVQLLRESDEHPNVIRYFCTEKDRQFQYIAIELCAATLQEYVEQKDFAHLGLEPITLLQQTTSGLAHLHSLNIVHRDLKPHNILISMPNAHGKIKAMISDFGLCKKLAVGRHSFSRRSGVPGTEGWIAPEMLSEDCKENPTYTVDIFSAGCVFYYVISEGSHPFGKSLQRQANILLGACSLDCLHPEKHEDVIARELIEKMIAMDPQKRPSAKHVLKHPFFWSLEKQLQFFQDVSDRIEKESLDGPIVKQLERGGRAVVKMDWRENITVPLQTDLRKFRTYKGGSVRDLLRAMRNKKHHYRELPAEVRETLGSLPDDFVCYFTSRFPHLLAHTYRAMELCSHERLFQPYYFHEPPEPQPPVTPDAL

Columns and labels:
[1] = system: IRE-1α-mediated XBP-1 splicing in human myeloma MM.1s cells; assay: Cellular XBP-1 splicing assay in myeloma cells (RT-PCR); settings: read-out: EC50_av, average EC50, endogenous XBP-1 splicing in myeloma cells, DTT stress
[2] = target: human IRE-1α (GST-IRE-1α) (Homo sapiens (Human), UniProt O75460); assay: IRE-1α assay (cleavage of mini-XBP-1 mRNA stem-loop substrate); type: biochemical; settings: read-out: IC50_av, average IC50 for inhibition of IRE-1α in vitro

| EC50 [1] | IC50 [2] | Compound | also measured |
| --- | --- | --- | --- |
| < 10 µM |  | CN1CCN(C(=O)c2ccc(Oc3ccc4c(C=O)c(O)ccc4c3)cc2)CC1 |  |
| > 10 µM |  | CN(C)CCNC(=O)COc1ccc2ccc(O)c(C=O)c2c1 |  |
|  | < 0.1 µM | O=Cc1c(O)ccc2cc(-c3cc(C(=O)O)ccc3Cl)ccc12 |  |
| > 10 µM |  | CN1CCC(NC(=O)COc2ccc3ccc(O)c(C=O)c3c2)CC1 |  |
|  |  | O=Cc1c(O)ccc2cc(-c3ccc(C(=O)NC4CCCNC4)o3)ccc12 (stereo not shown) [Compound 171] | IC50 ([2]; tested form: HCl): < 1 µM; EC50 ([1]; tested form: HCl): < 10 µM |
| < 10 µM | < 1 µM | CN1CCN(C(=O)c2ccnc(-c3ccc4c(C=O)c(O)ccc4c3)c2)CC1 |  |
|  | < 1 µM | O=Cc1c(O)ccc2cc(-c3ccc(C(=O)O)cc3Cl)ccc12 |  |
| > 10 µM |  | O=Cc1c(O)ccc2ccc(OCC(=O)NN3CCOCC3)cc12 |  |
| < 10 µM | > 1 µM | CN1CCN(c2ccc(-c3ccc4ccc(O)c(C=O)c4c3)cc2)CC1 |  |
| 10 µM | < 1 µM | O=Cc1c(O)ccc2ccc(-c3cncnc3)cc12 |  |
| < 10 µM | 0.1 µM | Cc1cc(C(=O)O)sc1-c1ccc2c(C=O)c(O)ccc2c1 |  |
| > 10 µM |  | O=Cc1c(O)ccc2ccc(OCC(=O)N3CCOCC3)cc12 |  |
| < 10 µM | < 1 µM | O=Cc1c(O)ccc2cc(-c3ccc(C(=O)N4CCOCC4)nc3)ccc12 |  |
| > 10 µM |  | O=Cc1c(O)ccc2cc(OCC(=O)N3CCOCC3)ccc12 |  |
| > 10 µM |  | CN1CCN(CC(=O)NC2CCN(c3ccc4c(C=O)c(O)ccc4c3)C2)CC1 (stereo not shown) |  |

| Compound | EC50 [1] | IC50 [2] | also measured |
| --- | --- | --- | --- |
| CN1CCN(C(=O)COc2ccc3ccc(O)c(C=O)c3c2)CC1 | > 10 µM |  |  |

Read-outs that look alike come from different tables or passages of the source.
